Data on one substance can be found in patent publication US7192932B1, “Use of immunomodulating agents” (Lauras AS, priority 1997, dated 2007).

The test system of this experiment is peripheral blood CD3+ T cells. The experiment in a line: TCR/CD3 (anti-CD3) stimulated T cell proliferation, [3H]-thymidine incorporation. The format is cell-based, human. The settings on record: CVI patients and controls. On the procedure: Human peripheral blood CD3+ T cells were purified by negative selection from 50 ml of heparin-treated blood from normal healthy donors (Ullevaal University Hospital Blood Center, Oslo. Norway) or patients. Briefly, peripheral blood mononuclear cells were isolated by density gradient (Lymphoprep, NycoMed, Oslo, Norway) centrifugation followed by negative selection using monodisperse magnetic beads directly coated with antibodies to CD14 and CD19 and rat anti-mouse IgG beads coated with antibodies to CD56 and a magnet. […]
Proliferation assays were performed by incubation of 0.75×10^6 CM+ T cells/ml in a 100 μl volume in that-bottom 96-well microtiter plates. […] Proliferation was analyzed by incubating, cells for 72 hours during which [^3H]thymidine was included for the last 16 hours. Cells were washed and harvested onto filters using a Scatron harvester (Suffolk, UK) and subsequently analyzed by β-scintillation counting. cAMP analogs, when used, were added 30 min prior to activation by addition of […] antibodies. 8-CPT-cAMP was from Sigorna (St. Louis, Mo.) and Sp- and Rp-8-Br-cAMPS were from BioLog Life Science Company (Bremen, Germany) and were all dissolved to concentrations of 4 to 10 mM in PBS and concentrations calculated using the extinction coefficients given by the manufacturer.
Background: Incorporation of labelled thymidine or its analogues reports DNA synthesis.

“IL-2: exogenously added IL-2 (2 Units/ng)”: the “Effect of exogenously added IL-2 on anti-CD3 stimulated proliferation” value was “marked increase”. The “Effect of exogenously added IL-2 on anti-CD3 stimulated proliferation” value (IL-2 ˜0.15 ng/mL) is on record as “no significant effect”.
